The text below walks through data of ChEMBL document CHEMBL1121863, “New analgesic drugs derived from phencyclidine” (1981).

The chains behind the UniProt entries cited, without tags or fusion partners.
UniProt P00934, whole entry, entry inferred from the test as described: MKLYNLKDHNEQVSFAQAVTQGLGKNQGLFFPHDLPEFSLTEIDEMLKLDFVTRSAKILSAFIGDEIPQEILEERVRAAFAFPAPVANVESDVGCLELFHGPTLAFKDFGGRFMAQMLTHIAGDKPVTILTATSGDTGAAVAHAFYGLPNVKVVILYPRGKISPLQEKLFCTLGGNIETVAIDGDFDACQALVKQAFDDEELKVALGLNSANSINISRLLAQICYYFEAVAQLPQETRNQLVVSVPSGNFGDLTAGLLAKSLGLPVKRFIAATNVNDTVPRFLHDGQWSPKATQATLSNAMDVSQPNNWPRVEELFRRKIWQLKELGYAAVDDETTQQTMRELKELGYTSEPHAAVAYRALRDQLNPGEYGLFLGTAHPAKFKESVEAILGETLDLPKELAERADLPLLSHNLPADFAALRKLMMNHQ

Data set [1] concerns Mus musculus. Nature of the data set: Lethal dose when administered through subcutaneous route. As to conditions: in vivo, sc.
Data set [2] deals with Mus musculus. In words: Compound was evaluated for the analgesic activity by administering through subcutaneous route in hotplate test.
The subject of data set [3] is Mus musculus. Nature of the data set: Compound was evaluated for the analgesic activity by administering through subcutaneous route in writhing test. On the technique in general: Writhing tests count abdominal constrictions after an irritant is injected.
The species named for data set [4] is Mus musculus. In words: Compound was evaluated for the inhibition of twitches in mouse vas deferens.
For data set [5], the species on record is Mus musculus. Nature of the data set: Compound was evaluated for the potency to produce hyperactivity in mice.
Data set [6] is filed under the species Mus musculus. Nature of the data set: Inhibitory effect of naloxone antagonism.
For a further data set, the target named is Unchecked (Escherichia coli K-12, UniProt P00934). In words: Inhibition of threonine synthase in Escherichia coli.
The test system of data set [7] is Rattus norvegicus. Nature of the data set: Antagonistic effect against AVP-induced hypertension in rats after intravenous administration.
Data set [8] concerns Rattus norvegicus. In words: Diuretic effect was determined after peroral administration at a dose of 30 mg/kg in rats. To be noted: route oral.
The test system of data set [9] is Rattus norvegicus. Nature of the data set: Diuretic effect was determined after peroral administration at a dose of 10 mg/kg in rats. As to conditions: route oral.
Another data set concerns HT-29. Nature of the data set: In vitro cytotoxicity against human HT-29 cancer cell line was evaluated.
The test system of another data set is B16. Nature of the data set: In vitro cytotoxicity against murine B16 cancer cell line was evaluated.
A further data set concerns A549. In words: In vitro cytotoxicity against human A-549 cancer cell line was evaluated.
The next data set relates to P388. In words: In vitro cytotoxicity against murine p388 cancer cell line was evaluated.
Another data set is filed under the species Canis familiaris. Nature of the data set: Compound was tested for the change in serum cholesterol (SC) levels in cholesterol fed dog.
For the next data set, the system named is Monkey. Nature of the data set: Compound was tested for the change in serum cholesterol (SC) levels in cholesterol fed monkey.

≈ marks a conversion by molar mass, not a printed value. Some results are limits rather than exact numbers.

For `c1ccc(C2CCN(C3(c4ccccc4)CCCCC3)CC2)cc1`, the 50% lethal dose (LD50) (commonly the dose at which mortality reaches 50%) in the data set on Mus musculus [1] is greater than 300 mg/kg. In addition, the ED50 (in general, the midpoint of the dose-response relation) with Mus musculus [2] came out at 56 mg/kg; in the data set with Mus musculus [3], 42 mg/kg. In addition, the half-maximal inhibitory concentration (IC50) (commonly the concentration at which inhibition is half-maximal) in the data set filed under Mus musculus [4] came out at 7.5 µM. In the data set filed under Mus musculus [5], this molecule displayed a Relative potency of 1. In addition, the pA2 (in general, a measure of antagonist potency on a negative log scale) in the data set filed under Mus musculus [6] is 8.71.
`Oc1ccc2c3c1O[C@H]1[C@@H](O)C=C[C@H]4[C@@H](C2)NCC[C@@]341` had a pA2 in the data set listed under Mus musculus [6] of 8.6.
Consider `N[C@@H](CSCP(=O)(O)O)C(=O)O`, for which the affinity on Unchecked, expressed as Ki, was 11 µM.
In the data set with Mus musculus [3], `OC1CCN(C2(c3ccccc3)CCCCC2)CC1` returned an ED50 of 11.2 mg/kg. Also, the Relative potency in the data set listed under Mus musculus [5] came to 2.3.
In turn, `COc1cc(C(=O)N2CCCCc3sccc32)ccc1NC(=O)c1ccccc1-c1ccccc1` gave an ID50 in the data set on Rattus norvegicus [7] of 0.11 mg/kg. Moreover, the Urine volume in the data set on Rattus norvegicus [8] was determined as 4.5 ml 4hr-1; in the data set with Rattus norvegicus [9] it was 2.5 ml 4hr-1.
Regarding `OC1(c2ccccc2)CCN(C2(c3ccccc3)CCCCC2)CC1`, the LD50 with Mus musculus [1] is 82.3 mg/kg. Also, the results for the median effective dose (ED50) in the data set on Mus musculus [2] and in the data set on Mus musculus [3] were 1.3 mg/kg and 0.27 mg/kg, respectively. For the same molecule, the IC50 in the data set filed under Mus musculus [4] is 0.082 µM. The Relative potency in the data set filed under Mus musculus [5] came to 1.2. The pA2 in the data set listed under Mus musculus [6] amounted to 8.76.
Consider `CCCCCCC(C)CCCCCCCCCCC[C@@H]1N[C@@H](CO)[C@@H]1O` (some centres undefined), for which the IC50 with HT-29 came out at 0.13 µg/mL (≈ 0.352 µM); with B16, 0.079 µg/mL (≈ 0.214 µM); in the data set on A549, 0.099 µg/mL (≈ 0.268 µM); in the data set with P388 it was 0.22 µg/mL (≈ 0.595 µM).
Take `CCOC(=O)C1(c2ccccc2)CCN(C2(c3ccccc3)CCCCC2)CC1`: the 50% lethal dose (LD50) in the data set with Mus musculus [1] is greater than 300 mg/kg. For the same molecule, the median effective dose (ED50) was 12.1 mg/kg with Mus musculus [2] and 5.8 mg/kg with Mus musculus [3]. The IC50 in the data set listed under Mus musculus [4] turned out to be 0.78 µM. The molecule further registered a Relative potency in the data set listed under Mus musculus [5] of 1.1. The molecule also returned a pA2 in the data set filed under Mus musculus [6] of 8.74.
Regarding `COc1ccc([C@@H]2[C@@H](CCCc3ccccc3)C(=O)N2c2ccc(OC)cc2)cc1`, the ED50 in the data set listed under Canis familiaris turned out to be 0.1 mg/kg; in the data set with Monkey it was 0.2 mg/kg.
For the molecule `O=C(Nc1ccc(C(=O)N2CCCCc3sccc32)cc1)c1ccccc1Cl`, the ID50 in the data set on Rattus norvegicus [7] was greater than 0.3 mg/kg.
As to `Cc1ccccc1C(=O)Nc1ccc(C(=O)N2CCCC(N(C)C)c3ccccc32)cc1` (centres undefined), in the data set on Rattus norvegicus [7], the ID50 is greater than 0.3 mg/kg. The Urine volume in the data set on Rattus norvegicus [8] is 9.3 ml 4hr-1; in the data set with Rattus norvegicus [9], 2.9 ml 4hr-1.
`COc1ccc(OC(=O)C2CCN(C3(c4ccccc4)CCCCC3)CC2)cc1OC` showed an LD50 in the data set on Mus musculus [1] of 74 mg/kg. In addition, the results for the ED50 in the data set on Mus musculus [2] and with Mus musculus [3] were 7.5 mg/kg and 5.2 mg/kg, respectively. Besides, the Relative potency in the data set filed under Mus musculus [5] turned out to be 0.5.
Take `O=C(Nc1ccc(C(=O)N2CCCCc3[nH]ccc32)cc1)c1ccccc1-c1ccccc1`: the ID50 with Rattus norvegicus [7] was found to be 0.07 mg/kg.
In the data set on Rattus norvegicus [7], `O=C(Nc1ccc(C(=O)N2CCCCc3sccc32)cc1)c1ccccc1-c1ccccc1` yielded an ID50 of 0.11 mg/kg. This molecule also gave a Urine volume with Rattus norvegicus [8] of 0.4 ml 4hr-1.
In the case of `COc1cc(NC(=O)c2ccccc2-c2ccccc2)ccc1C(=O)N1CCCCc2sccc21`, the ID50 in the data set with Rattus norvegicus [7] is greater than 0.3 mg/kg. Further, in the data set with Rattus norvegicus [8], the Urine volume amounted to 3.5 ml 4hr-1.
On to `Cc1ccccc1C(=O)Nc1ccc(C(=O)N2CCCC(N(C)C)c3sccc32)cc1` (centres undefined), for which the Urine volume in the data set with Rattus norvegicus [9] was 2.9 ml 4hr-1.
`CN(CCc1cccnc1)C1CCCN(C(=O)c2ccc(NC(=O)c3ccccc3-c3ccccc3)cc2)c2ccsc21` (centres undefined): the Urine volume in the data set with Rattus norvegicus [9] was 3.8 ml 4hr-1.
Take `COC(=O)C1CCN(C2(c3ccccc3)CCCCC2)CC1`: the results for the ED50 with Mus musculus [2] and with Mus musculus [3] were 40 mg/kg and 14.5 mg/kg, respectively. Besides, in the data set filed under Mus musculus [5], the Relative potency stood at 2.
Consider `Cc1ccccc1C(=O)Nc1ccc(C(=O)N2CCCCc3sccc32)cc1`, for which, in the data set on Rattus norvegicus [7], the ID50 is greater than 0.3 mg/kg.
As to `c1ccc(C2(N3CCCCC3)CCCCC2)cc1`, the LD50 in the data set with Mus musculus [1] amounted to 37.5 mg/kg. This molecule returned an ED50 in the data set on Mus musculus [3] of 2.8 mg/kg. Also, the Relative potency in the data set listed under Mus musculus [5] worked out at 5.
`O=C(Oc1ccccc1)C1CCN(C2(c3ccccc3)CCCCC2)CC1` registered a median lethal dose (LD50) with Mus musculus [1] greater than 300 mg/kg. This molecule registered an ED20 with Mus musculus [2] of 15 mg/kg. The ED50 in the data set with Mus musculus [3] was 24.5 mg/kg. Besides, in the data set listed under Mus musculus [5], the Relative potency was 1.1.
The like results for `O=C(Oc1cccnc1)C1CCN(C2(c3ccccc3)CCCCC2)CC1` were, in that order, greater than 300 mg/kg, 45 mg/kg, 16.5 mg/kg and 1.3.
With `Nc1ccc(OC(=O)C2CCN(C3(c4ccccc4)CCCCC3)CC2)cc1`, the ED20 in the data set on Mus musculus [2] came to 40 mg/kg. In the data set on Mus musculus [3], the ED50 was 9.3 mg/kg. This molecule returned a Relative potency in the data set filed under Mus musculus [5] of 0.7.
Take `CN(C)C1CCCN(C(=O)c2ccc(NC(=O)c3ccccc3-c3ccccc3)cc2)c2ccsc21` (centres undefined): the ID50 in the data set on Rattus norvegicus [7] is greater than 0.3 mg/kg. The values for the Urine volume in the data set with Rattus norvegicus [8] and in the data set on Rattus norvegicus [9] were 9.9 ml 4hr-1 and 7.6 ml 4hr-1, respectively.
In the data set with Rattus norvegicus [7], `Cn1ccc2c1CCCCN2C(=O)c1ccc(NC(=O)c2ccccc2-c2ccccc2)cc1` came in with an ID50 of 0.15 mg/kg. In the data set on Rattus norvegicus [8], this molecule yielded a Urine volume of 0.8 ml 4hr-1.
